## Reported logP (octanol/water) values for industrial, environmental and drug-like chemicals

From the experimental data distributed with OPERA 2.9.

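The OPERA project collected these measurements from public sources as training and test data for property models. The files give a single number for a compound and property, which may rest on several reports. Conditions of the individual experiments are not part of the data. Where a salt, mixture or single isomer is drawn, the source does not say that exactly this form was tested. Unmarked limits or estimates from the upstream databases cannot be ruled out.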

The octanol-water partition coefficient is given as log10; larger values mean a more lipophilic compound. "via" names the databases from which the curators took the value.

- CC(C)(O)C(=O)c1ccc(C2(C)CC(C)(C)c3ccc(C(=O)C(C)(C)O)cc32)cc1 (stereo not drawn): log Kow 3.19 (via eChemPortal)
- O=S(=O)([O-])CCCS.[Na+]: log Kow -2.94 (via eChemPortal)
- CCN(CC)c1ccc(C=O)cc1: log Kow 2.72 (via OCHEM)
- OC[C@H]1O[C@H](O)[C@H](O)[C@@H](O)[C@@H]1O: log Kow -2.975 (via OCHEM)
- COc1cc(/N=N/c2cccc(S(=O)(=O)O)c2)ccc1NC(=O)Nc1ccc(/N=N/c2cccc(S(=O)(=O)O)c2)cc1OC.OCCNCCO.OCCNCCO: log Kow -4.06 (via eChemPortal)
- C[N+](C)(C)c1cccc([N+](=O)[O-])c1.[Cl-]: log Kow 0.001 (via eChemPortal)
- Brc1c(Br)c(Br)c(-c2c(Br)c(Br)c(Br)c(Br)c2Br)c(Br)c1Br: log Kow 8.58 (via PubChem)
- O=[N+]([O-])c1ccc2ccc[n+]([O-])c2c1: log Kow 0.36 (via OCHEM)
- CCCN(CCC)c1cc(N)n(O)c(=N)n1: log Kow 3.19 (via OCHEM)
- O=C(O)c1cnccn1: log Kow -0.18 (via eChemPortal)
- O=C(CC(=O)c1ccccc1)c1ccccc1: log Kow 4.59 (via eChemPortal)
- CC1=NN(c2cccc(S(=O)(=O)O)c2)C(=N)C1: log Kow -1.951 (via eChemPortal)
- C=CC(C)=CCCC(=C)C: log Kow 4.17 (via OCHEM)
- O=S(=O)(O)CCN(CCO)CCO: log Kow -3.59 (via eChemPortal)
- CCN1Cn2c(nc3ccccc3c2=O)C1C (stereo not drawn): log Kow 1.02 (via OCHEM)
- CC(C)CC=O: log Kow 1.405 (via eChemPortal)
- CC(C)c1ccc(S(=O)(=O)[O-])cc1.[Na+]: log Kow -1.1 (via eChemPortal)
- CN(C)c1ccc(C2(c3ccc(N(C)C)cc3)OC(=O)c3cc(N(C)C)ccc32)cc1: log Kow 5.27 (via OCHEM)
- CCOCC(C)O (stereo not drawn): log Kow 1.23 (via eChemPortal)
- CCOC(=O)Nc1ccc2nn(C)nc2c1: log Kow 1.83 (via OCHEM)
- CCCCOc1cccc2ccccc12: log Kow 5.24 (via OCHEM)
- C=Cc1ccc(S(=O)(=O)[O-])cc1.[Na+]: log Kow -3.44 (via eChemPortal)
- OC1CCCC1: log Kow 0.71 (via PubChem)
- CCCOC(=O)c1ccco1: log Kow 2.36 (via OCHEM)
- O=C1c2ccccc2C(=O)c2c(Cl)cccc21: log Kow 3.98 (via OCHEM)
- OCCOCCN1CCN(C(c2ccccc2)c2ccc(Cl)cc2)CC1 (stereo not drawn): log Kow 2.7 (via PubChem)
- CCCCC(CC)CNS(=O)(=O)c1ccc(N)cc1 (stereo not drawn): log Kow 4.1 (via eChemPortal)
- O=C([C@@H]1COc2ccccc2O1)N1CC[NH2+]CC1: log Kow 0.103 (via eChemPortal)
- NC(=S)NN=Cc1ccc(O)cn1: log Kow 1.04 (via OCHEM)
- O=C(O)CCCn1nc2ccccc2n1: log Kow 0.6 (via OCHEM)
- Nc1ncnc2c1nc(SCc1ccccc1)n2[C@@H]1O[C@@H]2COP(=O)(O)O[C@H]2[C@H]1O: log Kow -1.15 (via OCHEM)
- Cc1cc(S(=O)(=O)[O-])c(/N=N/c2c(O)c(C(=O)[O-])cc3ccccc23)cc1Cl.[Ca+2]: log Kow -0.75 (via eChemPortal)
- C/C(C#C[C@]1(O)[C@H](C)C[C@@H](O)CC1(C)C)=C\CO: log Kow 0.5 (via eChemPortal)
- C=CCS(=O)(=O)[O-].[Na+]: log Kow -3.5 (via eChemPortal)
- Nc1cc(S(=O)(=O)[O-])cc2cc(S(=O)(=O)[O-])c(/N=N/c3ccc(-c4ccc(/N=N/c5c(S(=O)(=O)[O-])cc6cc(S(=O)(=O)[O-])cc(N)c6c5[O-])c([O-])c4)cc3[O-])c([O-])c12.[Cu+2].[Cu+2].[Na+].[Na+].[Na+].[Na+]: log Kow -0.77 (via eChemPortal)
- CCN(CC)c1ccc2cc3c(oc2c1)c(C#N)c(=O)n1c2ccccc2nc31: log Kow 3.6 (via eChemPortal)
- C=COC: log Kow 0.42 (via eChemPortal)
- CC1=C([O-])C(O)CC(C)(C)C1=O.[Na+] (stereo not drawn): log Kow -4.274 (via eChemPortal)
- C[N+](C)(CC[N+](C)(C)CC(O)COCC(F)(F)C(F)F)CC(O)COCC(F)(F)C(F)F.[Cl-].[Cl-] (stereo not drawn): log Kow -0.434 (via eChemPortal)
- CN(C)CC(c1ccc(O)cc1)C1(O)CCCCC1 (stereo not drawn): log Kow 0.33 (via eChemPortal)
- CC1=NN(c2ccc(S(=O)(=O)O)cc2)C(=O)C1: log Kow -2.04 (via eChemPortal)
- O=C1Nc2ccc(Cl)cc2[C@@](C#CC2CC2)(C(F)(F)F)O1: log Kow 4.6 (via PubChem)
- O=C(O)CCCCCCCCC(=O)O: log Kow 1.5 (via eChemPortal)
- O=[N+]([O-])c1ccc(Cl)nc1Cl: log Kow 1.96 (via OCHEM)
- CC(C)(C)c1ccc(O)c(O)c1: log Kow 2.86 (via eChemPortal)
- CC(=O)OCN1C(=O)C2CC=CCC2C1=O (stereo not drawn): log Kow 0.97 (via OCHEM)
- C=Cc1cccc(C=C)c1: log Kow 4.15 (via OCHEM)
- Br.CN(Cc1cc(Br)cc(Br)c1N)C1CCCCC1: log Kow 0.57 (via eChemPortal)
- CCN(CC)c1ccc(C(C2=CC(=O)C(S(=O)(=O)[O-])=CC2=S(=O)([O-])O)=C2C=CC(=[N+](CC)CC)C=C2)cc1.[Na+]: log Kow -2.31 (via eChemPortal)
- Cc1cc(S(=O)(=O)O)ccc1N: log Kow 0.076 (via eChemPortal)
- Cc1cc(/N=N/c2ccc(Nc3nc(N)nc(Cl)n3)c3c(S(=O)(=O)[O-])cccc23)c(C)cc1/N=N/c1cc(S(=O)(=O)[O-])ccc1S(=O)(=O)[O-].[Na+].[Na+].[Na+]: log Kow -3.46 (via eChemPortal)
- Nc1c(/N=N/c2ccc(S(=O)(=O)CCOS(=O)(=O)[O-])cc2)c(S(=O)(=O)[O-])cc2cc(S(=O)(=O)[O-])c(/N=N/c3ccc(S(=O)(=O)CCOS(=O)(=O)[O-])cc3)c(O)c12.[Na+].[Na+].[Na+].[Na+]: log Kow -4.34 (via eChemPortal)
- CN(CCC#N)c1ccc(/C=C/C2=[N+](C)c3ccccc3C2(C)C)cc1.O=P([O-])(O)O: log Kow -1.744 (via eChemPortal)

Excerpt, the opening 8 entries:

| structure (SMILES) | log Kow | via |
|---|---|---|
| CC(C)(O)C(=O)c1ccc(C2(C)CC(C)(C)c3ccc(C(=O)C(C)(C)O)cc32)cc1 (stereo not drawn) | 3.19 | eChemPortal |
| O=S(=O)([O-])CCCS.[Na+] | -2.94 | eChemPortal |
| CCN(CC)c1ccc(C=O)cc1 | 2.72 | OCHEM |
| OC[C@H]1O[C@H](O)[C@H](O)[C@@H](O)[C@@H]1O | -2.975 | OCHEM |
| COc1cc(/N=N/c2cccc(S(=O)(=O)O)c2)ccc1NC(=O)Nc1ccc(/N=N/c2cccc(S(=O)(=O)O)c2)cc1OC.OCCNCCO.OCCNCCO | -4.06 | eChemPortal |
| C[N+](C)(C)c1cccc([N+](=O)[O-])c1.[Cl-] | 0.001 | eChemPortal |
| Brc1c(Br)c(Br)c(-c2c(Br)c(Br)c(Br)c(Br)c2Br)c(Br)c1Br | 8.58 | PubChem |
| O=[N+]([O-])c1ccc2ccc[n+]([O-])c2c1 | 0.36 | OCHEM |